## Cyclic peptide permeability, from CycPeptMPDB

Values of Townsend et al. 2020, doi:10.26434/chemrxiv.13335941.v1, as listed in CycPeptMPDB.

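Conditions beyond the assay type are not listed; see the original paper. Other peptides of the study may be missing here. Peptides that the database sets to -10, its floor, are left out.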

PAMPA is the parallel artificial membrane permeability assay, which has no cells and reads passive diffusion.
Permeability is in 10^-6 cm/s, converted from the database's log10 values; higher is more permeable.

| structure (SMILES) | PAMPA (10^-6 cm/s) |
|---|---|
| CCCN1CC(=O)N[C@H](CC(C)C)C(=O)N[C@H](CC(C)C)C(=O)N2CCC[C@@H]2C(=O)N[C@@H](CC(C)C)C(=O)N[C@@H](Cc2ccccc2)C1=O | 1.3 |
| CC(C)C[C@@H]1NC(=O)[C@@H](CC(C)C)NC(=O)[C@@H](C)N(C)C(=O)[C@H](Cc2ccccc2)NC(=O)[C@@H](CC(C)C)NC(=O)[C@H]2CCCN2C1=O | 5.5 |
| CC(C)C[C@@H]1NC(=O)C[C@H](Cc2ccccc2)NC(=O)[C@H](Cc2ccccc2)NC(=O)[C@@H](CC(C)C)NC(=O)[C@H]2CCCN2C(=O)CN(Cc2ccccc2)C1=O | 4.8 |
| CC(C)C[C@@H]1NC(=O)[C@H](C)N(C)C(=O)[C@H]2CCCN2C(=O)[C@H](Cc2ccccc2)NC(=O)CN(Cc2ccccc2)C(=O)[C@@H]2CCCN2C(=O)[C@H](CC(C)C)NC1=O | 1.7 |
| CC(C)C[C@H]1NC(=O)CN(Cc2ccccc2)C(=O)[C@@H](C)N(C)C(=O)[C@@H]2CCCN2C(=O)[C@H](Cc2ccccc2)NC(=O)CN(Cc2ccccc2)C(=O)[C@H]2CCCN2C1=O | 2.7 |
| CC(C)C[C@@H]1NC(=O)C[C@H](Cc2ccccc2)NC(=O)[C@H]2CCCN2C(=O)[C@H](Cc2ccccc2)NC(=O)[C@H](CC(C)C)NC(=O)[C@@H]2CCCN2C(=O)[C@H](CC(C)C)NC1=O | 1.9 |
| CC(C)C[C@@H]1NC(=O)[C@@H](C)NC(=O)[C@H](Cc2ccccc2)NC(=O)CN(Cc2ccccc2)C(=O)[C@@H]2CCCN2C(=O)CN(Cc2ccccc2)C1=O | 0.6 |
| CC(C)C[C@H]1NC(=O)C[C@H](Cc2ccccc2)NC(=O)[C@@H]2CCCN2C(=O)[C@H](Cc2ccccc2)NC(=O)[C@H](CC(C)C)N(C)C(=O)[C@@H]2CCCN2C(=O)[C@@H](CC(C)C)NC1=O | 1.2 |
| CC(C)C[C@@H]1C(=O)N[C@@H](Cc2ccccc2)C(=O)N2CCC[C@@H]2C(=O)N[C@H](C)C(=O)N(C)[C@@H](CC(C)C)C(=O)N(C)[C@@H](CC(C)C)C(=O)N2CCC[C@H]2C(=O)N1C | 3.2 |
| CC(C)C[C@H]1NC(=O)[C@H]2CCCN2C(=O)CN(Cc2ccccc2)C(=O)[C@@H](CC(C)C)NC(=O)[C@@H](C)NC(=O)[C@H](Cc2ccccc2)NC1=O | 1.9 |
| CC(C)C[C@@H]1C(=O)N[C@H](CC(C)C)C(=O)N2CCC[C@H]2C(=O)N(C)[C@@H](CC(C)C)C(=O)N[C@@H](Cc2ccccc2)C(=O)N2CCC[C@@H]2C(=O)N[C@@H](Cc2ccccc2)CC(=O)N1C | 3.6 |
| CC(C)C[C@@H]1NC(=O)[C@@H](C)NC(=O)[C@@H]2CCCN2C(=O)[C@H](Cc2ccccc2)NC(=O)CN(Cc2ccccc2)C(=O)[C@@H]2CCCN2C(=O)[C@@H](CC(C)C)NC1=O | 0.05 |

2 of these entries, quoted again:

{"smiles": "CC(C)C[C@@H]1C(=O)N[C@H](CC(C)C)C(=O)N2CCC[C@H]2C(=O)N(C)[C@@H](CC(C)C)C(=O)N[C@@H](Cc2ccccc2)C(=O)N2CCC[C@@H]2C(=O)N[C@@H](Cc2ccccc2)CC(=O)N1C", "PAMPA (10^-6 cm/s)": "3.6"}
{"smiles": "CC(C)C[C@@H]1C(=O)N[C@@H](Cc2ccccc2)C(=O)N2CCC[C@@H]2C(=O)N[C@H](C)C(=O)N(C)[C@@H](CC(C)C)C(=O)N(C)[C@@H](CC(C)C)C(=O)N2CCC[C@H]2C(=O)N1C", "PAMPA (10^-6 cm/s)": "3.2"}